Results from patent US20110098180A1, “Herbicide-Resistant Plants, And Polynucleotides And Methods For Providing Same” (United States Department of Agriculture, priority 2002, published 2011).

The chains behind the UniProt entries cited, without tags or fusion partners. Residues count along the entry.
UniProt Q66PY0, 77-580: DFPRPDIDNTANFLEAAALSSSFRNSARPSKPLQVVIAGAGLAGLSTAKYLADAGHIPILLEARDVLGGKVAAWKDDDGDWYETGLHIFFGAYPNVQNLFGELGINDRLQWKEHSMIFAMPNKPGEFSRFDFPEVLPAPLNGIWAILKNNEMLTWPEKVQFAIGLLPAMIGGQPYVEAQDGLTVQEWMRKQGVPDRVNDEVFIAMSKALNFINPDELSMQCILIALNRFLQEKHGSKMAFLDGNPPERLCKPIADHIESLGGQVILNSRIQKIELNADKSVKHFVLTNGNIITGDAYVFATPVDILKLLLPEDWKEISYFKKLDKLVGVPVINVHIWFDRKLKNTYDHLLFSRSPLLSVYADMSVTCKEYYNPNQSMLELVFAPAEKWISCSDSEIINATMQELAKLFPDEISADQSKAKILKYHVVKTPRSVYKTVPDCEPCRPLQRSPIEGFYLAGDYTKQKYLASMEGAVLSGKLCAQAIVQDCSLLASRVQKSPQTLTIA
UniProt Q66PY0, 1-580 V509G: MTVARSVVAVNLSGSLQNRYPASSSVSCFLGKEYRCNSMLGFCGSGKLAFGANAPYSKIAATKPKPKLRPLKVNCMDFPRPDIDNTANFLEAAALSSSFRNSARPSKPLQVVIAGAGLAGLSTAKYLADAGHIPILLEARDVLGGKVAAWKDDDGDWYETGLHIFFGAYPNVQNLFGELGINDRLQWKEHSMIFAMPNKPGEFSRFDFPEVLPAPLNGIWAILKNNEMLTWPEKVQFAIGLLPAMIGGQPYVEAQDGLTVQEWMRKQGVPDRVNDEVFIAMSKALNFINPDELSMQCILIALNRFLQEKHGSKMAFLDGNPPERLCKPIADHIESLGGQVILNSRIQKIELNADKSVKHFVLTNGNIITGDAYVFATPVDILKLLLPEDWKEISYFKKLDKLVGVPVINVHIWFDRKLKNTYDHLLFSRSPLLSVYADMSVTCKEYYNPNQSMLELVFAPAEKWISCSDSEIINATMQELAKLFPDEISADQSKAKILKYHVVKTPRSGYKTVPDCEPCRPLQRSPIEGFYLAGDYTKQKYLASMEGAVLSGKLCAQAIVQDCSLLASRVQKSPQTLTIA
UniProt Q66PY0, 1-580 L425P: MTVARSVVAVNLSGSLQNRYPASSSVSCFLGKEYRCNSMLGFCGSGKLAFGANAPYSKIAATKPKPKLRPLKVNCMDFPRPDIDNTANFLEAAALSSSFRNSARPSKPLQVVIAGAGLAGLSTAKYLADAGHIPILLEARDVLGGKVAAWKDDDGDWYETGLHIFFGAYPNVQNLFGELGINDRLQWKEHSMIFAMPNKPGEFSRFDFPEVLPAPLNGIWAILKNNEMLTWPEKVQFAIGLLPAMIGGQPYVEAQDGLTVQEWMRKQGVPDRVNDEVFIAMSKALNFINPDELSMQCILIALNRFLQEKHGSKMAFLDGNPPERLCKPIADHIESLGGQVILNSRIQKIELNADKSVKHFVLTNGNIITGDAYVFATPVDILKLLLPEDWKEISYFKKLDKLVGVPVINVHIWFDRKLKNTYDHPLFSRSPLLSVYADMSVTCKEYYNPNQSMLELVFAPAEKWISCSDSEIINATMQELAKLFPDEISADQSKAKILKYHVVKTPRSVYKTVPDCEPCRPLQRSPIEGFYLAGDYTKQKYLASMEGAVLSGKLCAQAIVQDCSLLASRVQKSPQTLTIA
UniProt Q66PY0, 1-580 L542R: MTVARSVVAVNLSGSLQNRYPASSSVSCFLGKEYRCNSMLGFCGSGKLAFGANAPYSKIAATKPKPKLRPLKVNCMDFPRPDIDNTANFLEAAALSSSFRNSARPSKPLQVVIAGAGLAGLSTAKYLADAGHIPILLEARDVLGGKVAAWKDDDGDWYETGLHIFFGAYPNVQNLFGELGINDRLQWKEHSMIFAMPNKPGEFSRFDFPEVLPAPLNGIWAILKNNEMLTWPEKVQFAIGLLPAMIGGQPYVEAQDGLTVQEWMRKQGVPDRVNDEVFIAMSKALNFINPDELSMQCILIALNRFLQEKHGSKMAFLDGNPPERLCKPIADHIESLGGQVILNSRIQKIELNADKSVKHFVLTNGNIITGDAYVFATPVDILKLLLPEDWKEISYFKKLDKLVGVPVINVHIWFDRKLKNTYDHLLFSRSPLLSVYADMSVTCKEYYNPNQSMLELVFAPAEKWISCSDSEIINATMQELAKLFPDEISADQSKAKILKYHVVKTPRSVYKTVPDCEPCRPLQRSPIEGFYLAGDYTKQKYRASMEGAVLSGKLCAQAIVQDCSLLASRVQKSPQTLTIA

Tests used:
Format in all cases: biochemical
[1] = biological target: hydrilla PDS position 304 Arginine, His-tagged (Hydrilla verticillata, UniProt Q66PY0); test: Cross-resistance testing, His-tagged column-purified PDS (Table 2A); conditions: read-out: I50, Arginine at 304
Excerpt: The alternative approach utilized His-tagging and column purification of the mutant PDS protins.
In order to express pds in bacteria, deletion clones were made for each of the three potential start codons with and without ATG. […] The forward primers used were ORF (5′ […] 3′), ORF-ATG (5′ […] 3′), 3_ORF (5′[…] 3′) and 3_ORF-ATG (5′ […] 3′). The resulting plasmids were named pORF, pORF-ATG (minus ATG codon), p3ORF and p3ORF-ATG. The pds-containing EcoRI-fragments of these plasmids were subcloned into the EcoRI site of pRSETb vector (Invitrogen) for Histidine tagging and bacterial expression. The resulting constructs were pHy4SET, pHy4SET-ATG (minus ATG), p3ORFSET and p3ORFSET-ATG. […]
All pRSET derived constructs were transformed into BL21(DE3)pLysS cells (Invitrogen), induced with IPTG for protein expression, and the His tag overproduced proteins analyzed by Western blot using Anti-HisG antibody (Invitrogen, cat. #R940-25). […]
His-tagged, purified proteins prepared as described above were transferred to the assay buffer on a PD10 column (Amersham Bioscience) and the concentration was adjusted to 100 μg/mL. […] I^50 values were calculated from the regressions.

[2] = biological target: Hydrilla PDS Val^509 → Gly (Hydrilla verticillata, UniProt Q66PY0, V509G); test: Fluridone enzyme inhibition assay, other substitutions (Table 3); conditions: read-out: I50
Procedure: (§1) To explore whether mutations at positions other than 304 of the hydrilla PDS enzyme and corresponding positions of other plant PDS enzymes also confer herbicide resistance, mutations discovered in Synechococcus strain PCC7942 (Leu^320→Pro; Val^403→Gly; Leu^436→Arg) were introduced into the hydrilla PDS sequence at the corresponding locations, and the resulting PDS enzymes tested for resistance.
(§2) Phytoene desaturase activity and its inhibition by herbicides was determined using an in vitro system using components derived from the in vivo production of phytoene and phytoene desaturase proteins. All mutations described in Examples 3 and 4 were tested. […] The clones were used for the heterologous expression of Hydrilla-PDS-enzyme. In particular, bacterial cultures were grown from single colonies overnight in Wu-broth (6.27 g/L K2HPO4, 1.8 g/L KH2PO4, 0.5 g/L Na-citrate, 0.9 g/L (NH4)2SO4, 10 g/L tryptone, 5 g/L yeast extract, 10 g/L NaCl, 44 ml/L glycerol, 0.1 mM MgSO4, pH 7.2) with kanamycin. 1-mL was aliquoted in centrifuge tube and stored at −80° C. For expression, 1 L LB-medium with kanamycin was inoculated with 1-mL Wu-culture and grown for 24 h at 37° C. to stationary phase with shaking at 200 rpm. The cells were collected by centrifugation at 2000×g. All of the following steps were done at 4° C. unless otherwise noted. Active soluble PDS enzyme was extracted by lysing the transformed E. coli cells using a French Press at 20,000 psi in assay buffer consisting of 100 mM Tris-HCl, pH 7.2, 10 mM magnesium-chloride, 0.1 mM NADP, 0.1 mM FAD, 10 mM cysteine, 5 mM DTT, 1 mM aminocaproic acid, and 1 μg/ml leupeptin. The soluble fraction containing PDS activity was obtained by centrifugation for 10 min at 1200×g. After 24 h they were centrifuged down and used in PDS enzyme activity assays as described below.
(§3) Generally, PDS protein fractions prepared as described above (Non-His-tagged and His-tagged) were mixed with a soluble fraction from phytoene-producing E. coli cells. […]

[3] = biological target: Hydrilla PDS Leu^425 → Pro (Hydrilla verticillata, UniProt Q66PY0, L425P); test: as above; conditions: read-out: I50
Procedure: as §1, §2, §3

[4] = biological target: Hydrilla PDS Leu^542 → Arg (Hydrilla verticillata, UniProt Q66PY0, L542R); test: as above; conditions: read-out: I50
Procedure: as §1, §2, §3

Substance: Fluridone
- pIC50 [1]: 3.52
- pIC50 [2]: 5.54
- pIC50 [3]: 6.49
- pIC50 [4]: 6.05

pIC50: −log10 of the molar value.
